{"source": "patent US12514883B2", "about": "(dated 2026)", "system": "T. sanguinis", "experiment": "[3H]5-HT uptake assay in T. sanguinis", "format": "cell-based, Turicibacter sanguinis", "conditions": "30 min pre-treatment"}
{"smiles": "CNCCC(Oc1ccc(C(F)(F)F)cc1)c1ccccc1", "note": "(stereo not shown) [fluoxetine]", "values": [{"measurement": "effect on [3H]5-HT uptake by T. sanguinis", "value": "inhibited"}]}
